Source: PubChem BioAssay AID720542 (National Center for Advancing Translational Sciences (NCATS), 2013)
The list shows a part of the results, in another mix than the full data. Some of these compounds have results that are not shown, active ones among them. Calls of active or inactive are those of the source. Calls come from the whole dose curve; as a rule, active = well fitted inhibition curve with a large enough effect; inconclusive = small, poorly fitted or top-dose-only effect; inactive = no such curve, though single readings can be large or run the other way.

The compounds below were run on Plasmodium falciparum AMA1 (3D7) - RON2 peptide interaction (assay: qHTS for Inhibitors of AMA1-RON; Towards Development of Antimalarial Drug Lead: Primary Screen). Conditions: AlphaScreen AMA1-biotinylated RON2 peptide binding; at 58.2 µM (top of the series) unless noted.
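Note: 0% = vehicle wells and -100% = peptide control; nearly all actives have a fitted effect of over 45% in size.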

Row | SMILES | activity change, negative = inhibition
1 | COc1cc(C(=O)NCC2(N(C)C)CCCCC2)c([N+](=O)[O-])cc1OC | inactive: -4.48%
2 | CN(C)C1(CNC(=O)c2ccc(Br)cc2)CCCCC1 | inactive: -12.2%
3 | O=C(NCC1(N2CCCCC2)CCCCC1)c1cccc(Cl)c1 | inactive: 2.06%
4 | COc1cccc(C(=O)NCC2(N3CCCCC3)CCCCC2)c1 | inactive: -0.688%
5 | COc1ccc(Cl)cc1C(=O)NCC1(N(C)C)CCCCC1 | inactive: -0.0567%
6 | O=C(OC1CN2CCC1CC2)C(CO)(c1ccccc1)c1ccccc1 (stereo unspecified) | inactive: 4.29%
7 | CN(C)c1cccc(C(=O)NCC2(N(C)C)CCCCC2)c1 | inactive: 6.62%
8 | CC(C)Oc1ccc(C(=O)NCC2(N(C)C)CCCCC2)cc1 | inactive: -2.1%
9 | O=C(OCCN1CCCC1)C(O)(c1ccccc1)c1ccccc1 | inactive: 12.3%
10 | COc1ccc(Br)c(C(=O)NCC2(N3CCCCC3)CCCCC2)c1 | inactive: -6.19%
11 | C=C(C)C#CC(O)(C(=O)OC1CCN(C)CC1)c1ccccc1 (stereo unspecified) | inactive: 0%
12 | CN1[C@@H]2CC[C@H]1CC(OC(=O)C(O)(c1ccccc1)c1ccccc1)C2 (stereo partly specified) | inactive: -3.27%
13 | O=C(NCC1(N2CCCCC2)CCCCC1)c1cc([N+](=O)[O-])ccc1Cl | inactive: -9.24%
14 | Cc1ccc(C(=O)NCC2(N3CCCCC3)CCCCC2)cc1 | inactive: 3.23%
15 | CC(C)N1C(=O)CC2(CCN(CCOC(=O)C(O)(c3ccccc3)c3ccccc3)CC2)C1=O | inactive: 3.91%
16 | CCN(CC)CC(C)C(C)OC(=O)C(O)(c1ccccc1)c1ccccc1 (stereo unspecified) | inactive: 7.05%
17 | COc1cc(SC)ccc1C(=O)NCC1(N(C)C)CCCCC1 | inactive: -4.3%
18 | Cc1ccccc1C(=O)NCC1(N2CCCCC2)CCCCC1 | inactive: -0.893%
19 | CN(C)C1CCCC1OC(=O)C(O)(c1ccccc1)c1ccccc1 (stereo unspecified) | inactive: 2.28%
20 | CN(C)c1ccc(C(=O)NCC2(N(C)C)CCCCC2)cc1 | inactive: -1.21%
21 | Cc1cc(C(=O)NCC2(N3CCCCC3)CCCCC2)ccc1[N+](=O)[O-] | inactive: -1.99%
22 | CCN1CCCC(OC(=O)C2(O)c3ccccc3C=Cc3ccccc32)C1 (stereo unspecified) | inactive: 5.94% [at 2.32 µM]
23 | O=C(NCC1(N2CCCCC2)CCCCC1)c1cccc(Br)c1 | inactive: -7.86%
24 | COc1ccc(C(=O)NCC2(N(C)C)CCCCC2)cc1 | inactive: -10.1%
25 | C=CCN1CCN(CCOC(=O)C(O)(c2ccccc2)c2ccccc2)CC1 | inactive: -5.45%
26 | O=C(NCC1(N2CCCCC2)CCCCC1)c1cc(F)c(F)cc1Cl | inactive: 27.5%
